## Ab-14 heavy chain CDR variants: yeast mating affinities

Target: peptide PDVDLGDISGINAS, taken from heptad repeat 2 (HR2) of SARS-CoV-2 spike.

Each scFv is VH, a 15-residue (Gly4Ser)3 linker, VL, as in the parent Ab-14, and differs from it in the CDRs of the heavy chain only.
VH: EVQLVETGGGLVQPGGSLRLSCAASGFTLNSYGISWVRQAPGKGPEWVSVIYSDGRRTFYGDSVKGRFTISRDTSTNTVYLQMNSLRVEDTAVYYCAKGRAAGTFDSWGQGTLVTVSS
VL: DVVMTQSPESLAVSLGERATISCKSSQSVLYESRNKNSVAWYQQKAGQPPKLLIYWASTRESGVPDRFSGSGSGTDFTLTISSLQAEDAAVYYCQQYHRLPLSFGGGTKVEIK

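The starting antibody came from a phage panning campaign against this peptide. AAYL49 was designed without a model: most single CDR substitutions and a random sample of double and triple ones. AlphaSeq pools MATa yeast showing the antibodies with MATalpha yeast showing the peptide. Binding brings cells together so that they mate, and sequencing counts the barcode pairs among the diploids. Read counts were normalised to the haploid input and turned into Kd by a linear fit to BCL2-family pairs of known affinity, for each replicate. Mating was done three times.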

Positions count from residue 1 of the parent VH; F27R puts R in place of F.
This list gathers variants with a substitution at S107 (VH, numbered from residue 1).
Scale: log10 of Kd in nM, estimated from mating counts; low values are strong binders.
A mean of the replicates is given; it leaves out those without a signal.
"n.d." means that the variant was in the library but no mating with the target was seen in that replicate; the authors take this as a sign of poor binding, and no number exists.

changes	replicates, log10 nM	mean, log10 nM
F27R/T104A/S107W	2.85 / 2.94 / 3.16	2.98
T28V/S107V	1.41 / 1.71 / 1.73	1.62
I51P/G61C/S107E	n.d. / 4.93 / 3.51	4.22
G26S/F59P/S107G	n.d. / 2.68 / n.d.	2.68
G33Q/I51V/S107E	n.d. / 5.12 / n.d.	5.12
G26L/G55A/S107C	n.d. / n.d. / n.d.	n.d.
Y32K/F105Y/S107F	n.d. / n.d. / n.d.	n.d.
S31N/G55Q/S107R	n.d. / n.d. / n.d.	n.d.
N30E/A102P/S107V	0.82 / 1.04 / 0.70	0.85
T58E/G61V/S107Y	1.42 / 2.06 / 1.92	1.80
Y32G/T104M/S107I	3.48 / n.d. / n.d.	3.48
Y60F/F105V/S107N	3.23 / 2.25 / 2.63	2.70
G26F/N30G/S107Q	n.d. / n.d. / n.d.	n.d.
F105R/D106E/S107C	1.57 / 2.13 / 1.60	1.77
Y52D/S107C	n.d. / n.d. / 3.93	3.93
S31A/I34Y/S107I	n.d. / n.d. / n.d.	n.d.
G55I/T104Y/S107W	n.d. / n.d. / n.d.	n.d.
R56N/S63P/S107N	3.09 / 2.86 / 2.16	2.70
F59S/G61C/S107W	1.13 / 1.09 / 1.22	1.15
G55D/D106E/S107V	n.d. / n.d. / n.d.	n.d.
V50I/F59L/S107K	n.d. / n.d. / n.d.	n.d.
Y32N/T58Y/S107M	n.d. / n.d. / n.d.	n.d.
R100G/A102T/S107H	n.d. / n.d. / n.d.	n.d.
G99M/R100C/S107K	1.27 / 1.34 / 1.61	1.41
G55C/D106M/S107T	n.d. / n.d. / n.d.	n.d.
L29P/S53E/S107P	n.d. / n.d. / n.d.	n.d.
V64N/S107W	n.d. / n.d. / n.d.	n.d.
G61C/D62V/S107R	n.d. / 3.67 / n.d.	3.67
Y52L/S107N	n.d. / n.d. / n.d.	n.d.
S31H/Y52Q/S107Y	n.d. / n.d. / n.d.	n.d.
Y52I/F59H/S107P	n.d. / 3.46 / n.d.	3.46
R56E/D62M/S107M	n.d. / n.d. / n.d.	n.d.
D62F/G99M/S107L	3.21 / 5.01 / 4.49	4.24
T28F/Y32R/S107L	n.d. / n.d. / n.d.	n.d.
G26R/F27R/S107I	n.d. / n.d. / n.d.	n.d.
I51R/D54H/S107K	n.d. / n.d. / n.d.	n.d.
G55V/K65T/S107A	n.d. / n.d. / n.d.	n.d.
G26D/S63L/S107M	n.d. / n.d. / n.d.	n.d.
A101E/G103L/S107E	0.96 / 1.20 / 1.03	1.07
G33M/F59K/S107H	n.d. / n.d. / n.d.	n.d.
L29K/G61T/S107P	n.d. / n.d. / n.d.	n.d.

The 6 strongest on average among those seen in every replicate, once more:

| changes | replicates, log10 nM | mean, log10 nM |
|---|---|---|
| N30E/A102P/S107V | 0.82 / 1.04 / 0.70 | 0.85 |
| A101E/G103L/S107E | 0.96 / 1.20 / 1.03 | 1.07 |
| F59S/G61C/S107W | 1.13 / 1.09 / 1.22 | 1.15 |
| G99M/R100C/S107K | 1.27 / 1.34 / 1.61 | 1.41 |
| T28V/S107V | 1.41 / 1.71 / 1.73 | 1.62 |
| F105R/D106E/S107C | 1.57 / 2.13 / 1.60 | 1.77 |

Empty control strains, which show no peptide, gave a signal in 15% of pairings with library AAYL49; the median was 4.06 and 95% of these signals were weaker than 2.83. No background was subtracted.
For reference, the parent read 0.65 as the reference entry and 4.11 (one replicate of three) as a member of this library.

Data: MIT Lincoln Laboratory AlphaSeq set, Engelhart et al. 2022, doi:10.1038/s41597-022-01779-4, as distributed in FLAb.